Results as given in ChEMBL document CHEMBL6127148, “Discovery of l-Lysine Dioxalate (LH1513) as a Novel Inhibitor of Calcium Oxalate Crystallization for Hyperoxaluria” (ACS Med Chem Lett, 2024).

How the values were obtained:
Calcium oxalate [1] = experiment: Potency index, ratio of citrate EC50 to test compound EC50 for inhibition of calcium oxalate crystallization in supersaturated solution of CaOx containing of 250 uM of CaCl2 and 250 uM of Na2C2O4 incubated for 72 hrs at pH 6.8 HEPES buffer by fluorescence-based assay
Calcium oxalate [2] = experiment: Inhibition of calcium oxalate crystallization in COM (010) face assessed as inhibition of growth on the (021) steps by measuring fold increase at EC50 concentration incubated for 20 min by atomic force microscopic analysis relative to citrate
Calcium oxalate [3] = experiment: Selectivity ratio of EC50 for inhibition of calcium oxalate crystallization in supersaturated solution of CaOx containing of 1 mM of CaCl2 and 250 uM of Na2C2O4 to inhibition of calcium oxalate crystallization in supersaturated solution of CaOx containing of 250 uM of CaCl2 and 250 uM of Na2C2O4
Calcium oxalate [4] = experiment: Potency index, ratio of pyruvate EC50 to test compound EC50 for inhibition of calcium oxalate crystallization in supersaturated solution of CaOx containing of 250 uM of CaCl2 and 250 uM of Na2C2O4 incubated for 72 hrs at pH 6.8 HEPES buffer by fluorescence-based assay
Calcium oxalate [5] = experiment: Potency index, ratio of citrate EC50 to test compound EC50 for inhibition of calcium oxalate crystallization in supersaturated solution of CaOx containing of 1 mM of CaCl2 and 250 uM of Na2C2O4 incubated for 72 hrs at pH 6.8 HEPES buffer by spectrophotometric method
Calcium oxalate [6] = experiment: Potency index, ratio of pyruvate EC50 to test compound EC50 for inhibition of calcium oxalate crystallization in supersaturated solution of CaOx containing of 1 mM of CaCl2 and 250 uM of Na2C2O4 incubated for 72 hrs at pH 6.8 HEPES buffer by spectrophotometric method

Ratio EC50 (Calcium oxalate [1])	fold change (FC) (Calcium oxalate [2])	Ratio EC50 (Calcium oxalate [3])	Ratio EC50 (Calcium oxalate [4])	Ratio EC50 (Calcium oxalate [5])	Ratio EC50 (Calcium oxalate [6])	Structure (SMILES)
22						NCCNC(=O)C(=O)O
66						O=C(O)C(=O)NCCNC(=O)C(=O)O
115	3	3	4.5	10	6	O=C([O-])C(=O)NCCCC[C@H](NC(=O)C(=O)[O-])C(=O)[O-].[Na+].[Na+].[Na+]
25				1.7		CC(=O)C(=O)O [PYRUVATE SODIUM]
